According to PubChem BioAssay AID2052 (NMMLSC, 2009):
The list shows a part of the results, in another mix than the full data. Calls of active or inactive are those of the source.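 The calls were made as follows: active = response, share of CD8 T cells binding vesicles, and their 90th percentile fluorescence all below set limits (cut at about 80% in these data, passing the limit was not always enough); inactive = the rest, inconclusive results apart.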

Test: modulators of CD8 T cell-vesicle binding, primary screen, mouse 2C CD8+ T cells, flow cytometry (AID 2052);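 also: values below 100% mean blocked vesicle binding to the CD8+ T cells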
Settings: 2C CD8+ T cell-vesicle binding, at 7 µM, hits give low values
How it was run: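 incubation = binding step 1.5 h, 37 °C, antibody labelling 20 min, ice | test system = 2C mouse CD8+ T cells | read-out basis = percent CD8+ FL2 mean versus row control | controls = Peptide-free naked vesicles (low) and QL9 vesicles with 0.7% DMSO vehicle (high) | detection = flow cytometry of vesicle-bound cells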

| Compound | response (vesicle binding) |
| --- | --- |
| CCc1cc(C(=O)NCC2(N3CCCCC3)CCCCC2)sc1C | inactive: 304% |
| O=C(OC1CN2CCC1CC2)C1c2ccccc2C=Cc2ccccc21 (stereo unspecified) | inactive: 282% |
| N/C(=N\O)c1c(N)no[n+]1[O-] | inactive: 133% |
| CCOC(=O)N1CCC(Nc2ccc(C)cc2)CC1 | inactive: 218% |
| COc1ccc(C(=O)NCC2(N3CCOCC3)CCCCC2)cc1OC | inactive: 510% |
| O=C(NCC1(N2CCOCC2)CCCCC1)c1cc(Br)ccc1Cl | inactive: 303% |
| COc1cc(C(=O)NCC2(N3CCOCC3)CCCCC2)cc(OC)c1C | inactive: 318% |
| c1ccc(CN2CCC(Nc3ccccc3)CC2)cc1 | inactive: 392% |
| CCCN1CCC(Nc2cc(OC)cc(OC)c2)CC1 | inactive: 121% |
| CN(C)C1(CNC(=O)c2cccc(C#N)c2)CCCCC1 | inactive: 78.4% |
| CC(C)(C)OC(=O)N1CCC(N(C(=O)c2ccccc2)c2ccc(Cl)cc2)CC1 | inactive: 202% |
| N#Cc1ccc(C(=O)NCC2(N3CCCCC3)CCCCC2)cc1 | inactive: 215% |
| O=C(NCC1(N2CCCCC2)CCCCC1)c1ccco1 | inactive: 312% |
| CN(C)c1ccc(C(=O)NCC2(N3CCCCC3)CCCCC2)cc1 | inactive: 275% |
| CCN1CCC(Nc2cccc(F)c2)CC1 | inactive: 239% |
| Cc1ccc(C(=O)NCC2(N3CCCCC3)CCCCC2)o1 | inactive: 256% |
| Fc1ccccc1NC1CCN(Cc2ccccc2)CC1 | inactive: 240% |
| COc1cc(OC)cc(C(=O)NCC2(N3CCCCC3)CCCCC2)c1 | inactive: 531% |
| CCCOc1ccc(C)cc1CN(CCCl)CCCl | inactive: 644% |
| CN1CCC(Nc2ccc(Cl)cc2)CC1 | inactive: 238% |
| CCC(CO)(C(=O)OC1CN2CCC1CC2)c1ccccc1 (stereo unspecified) | inactive: 263% |
| COc1cc(OC)cc(C(=O)NCC2(N3CCOCC3)CCCCC2)c1 | inactive: 199% |

| Compound | response (vesicle binding) |
| --- | --- |
| COc1cccc(C(=O)N(c2cc(C)cc(C)c2)C2CCN(C(=O)OC(C)(C)C)CC2)c1 | inactive: 587% |
| CCCOc1ccc(C(=O)NCC2(N(C)C)CCCCC2)cc1 | inactive: 229% |
| CC(C)(C)OC(=O)N1CCC(Nc2ccccc2)CC1 | inactive: 542% |
| O=C(O)C1(Nc2ccccc2)CCN(Cc2ccccc2)CC1 | inactive: 171% |
| CCOc1ncccc1C(=O)NCC1(N2CCOCC2)CCCCC1 | inactive: 241% |
| CN1CCC(Nc2ccc(F)c(Cl)c2)CC1 | inactive: 205% |
| CCOC(=O)N1CCC(Nc2ccc(OC)cc2)CC1 | inactive: 478% |
| N#CC1(Nc2ccccc2)CCN(Cc2ccccc2)CC1 | inactive: 129% |
| O=C(NCC1(N2CCCCC2)CCCCC1)c1ccc(Cl)s1 | inactive: 428% |
| O=C(OC1CN2CCC1CC2)C1c2ccccc2Oc2ccccc21 (stereo unspecified) | inactive: 494% |
| COc1ccc(Cl)cc1C(=O)NCC1(N2CCOCC2)CCCCC1 | inactive: 205% |
| O=C(NCC1(N2CCOCC2)CCCCC1)c1cc2ccccc2o1 | inactive: 369% |
| O=C(NCC1(N2CCCCC2)CCCCC1)c1ccc(Cl)nc1 | inactive: 522% |
| Cc1cc(C)cc(N(C(=O)c2ccccc2)C2CCN(C(=O)OC(C)(C)C)CC2)c1 | inactive: 412% |
| CSc1ccccc1C(=O)NCC1(N2CCCCC2)CCCCC1 | inactive: 341% |
| O=C(NCC1(N2CCCCC2)CCCCC1)c1ccc(=O)[nH]c1 | inactive: 290% |
| O=C(NCC1(N2CCCCC2)CCCCC1)c1cccs1 | inactive: 342% |
| COc1ccc(C(=O)NCC2(N3CCCCC3)CCCCC2)cc1 | inactive: 492% |
| COc1ccc(C(=O)NCC2(N3CCCCC3)CCCCC2)c(OC)c1OC | inactive: 472% |
| CC(C)(C)OC(=O)N1CCC(N(C(=O)c2ccccc2)c2ccc(F)cc2)CC1 | inactive: 226% |
| CCOC(=O)N1CCC(Nc2cccc(C)c2)CC1 | inactive: 234% |
| COc1cc(C(=O)NCC2(N(C)C)CCCCC2)ccc1OC(F)F | inactive: 183% |

| Compound | response (vesicle binding) |
| --- | --- |
| Cc1ccc(OCC(C)C)c(CN(CCCl)CCCl)c1 | inactive: 248% |
| O=C(NCC1(N2CCCCC2)CCCCC1)c1ccc(F)cc1 | inactive: 177% |
| COc1ccc(NC2CCN(CCc3ccccc3)CC2)c(OC)c1 | inactive: 609% |
| CCOC(=O)N1CCC(Nc2ccc(F)cc2)CC1 | inactive: 164% |
| CCOc1ccc(C)cc1CN(CCCl)CCCl | inactive: 486% |
| CN1CCN(CCOC(=O)C(O)(c2ccccc2)c2ccccc2)CC1 | inactive: 420% |
| COc1ccc(NC2CCN(C(=O)OC(C)(C)C)CC2)cc1 | inactive: 487% |
| COc1cc(C(=O)NCC2(N3CCCCC3)CCCCC2)ccc1OC(F)F | inactive: 491% |
| O=C(NCC1(N2CCOCC2)CCCCC1)c1cc(=O)[nH]c2ccccc12 | inactive: 226% |
| O=C(NCC1(N2CCCCC2)CCCCC1)c1cccc(C(F)(F)F)c1 | inactive: 293% |
| O=C(NCC1(N2CCCCC2)CCCCC1)c1cccc([N+](=O)[O-])c1 | inactive: 524% |
| CCN1CCC(Nc2ccc(Cl)cc2)CC1 | inactive: 264% |
| N#CC1(Nc2ccccc2)CCN(CCc2ccccc2)CC1 | inactive: 406% |
| O=C(NCC1(N2CCCCC2)CCCCC1)c1ccc(OC(F)F)cc1 | inactive: 458% |
| CCCOc1ccc(C(=O)NCC2(N(C)C)CCCCC2)cc1OC | inactive: 185% |
| CN1CCC(Nc2cccc(F)c2)CC1 | inactive: 381% |
| O=C(NCC1(N2CCCCC2)CCCCC1)c1cncc(Br)c1 | inactive: 318% |
| COc1cc(OC)c(C(=O)NCC2(N(C)C)CCCCC2)cc1OC | inactive: 37.8% |
| O=C(NCC1(N2CCOCC2)CCCCC1)c1cc(F)c(F)cc1Cl | inactive: 239% |
| COc1ccc(CN(CCCl)CCCl)cc1Cl | inactive: 191% |
| CN(C)c1cccc(C(=O)NCC2(N3CCCCC3)CCCCC2)c1 | inactive: 292% |
| CC(C)c1ccc(NC2CCN(C(=O)OC(C)(C)C)CC2)cc1 | inactive: 968% |
